Source: patent US20200338203A1 (Bicycle, published 2020)

Protein sequences, listed by entry. Tags and fused reporters are not part of them. Residues count along the entry.
UniProt P29317, 24-537: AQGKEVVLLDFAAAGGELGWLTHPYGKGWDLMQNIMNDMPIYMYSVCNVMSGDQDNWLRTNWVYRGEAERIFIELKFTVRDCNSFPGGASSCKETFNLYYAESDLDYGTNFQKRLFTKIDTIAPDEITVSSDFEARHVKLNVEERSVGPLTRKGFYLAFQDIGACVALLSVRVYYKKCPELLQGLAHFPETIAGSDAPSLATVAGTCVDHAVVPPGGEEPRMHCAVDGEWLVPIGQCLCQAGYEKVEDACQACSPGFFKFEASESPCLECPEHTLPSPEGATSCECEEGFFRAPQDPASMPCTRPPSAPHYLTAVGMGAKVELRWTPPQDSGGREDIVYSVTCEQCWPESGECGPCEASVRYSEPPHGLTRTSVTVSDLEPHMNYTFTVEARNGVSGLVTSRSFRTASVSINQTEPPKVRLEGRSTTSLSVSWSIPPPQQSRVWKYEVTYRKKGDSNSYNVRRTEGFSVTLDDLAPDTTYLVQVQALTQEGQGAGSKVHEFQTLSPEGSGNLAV

Tests used:
Human EphA2 (Ecto) [1] = biological target: T1, Human EphA2 (Ecto) (Human, UniProt P29317 24-537); experiment: FP competition; competitor Compound 66
T1 construct: extracellular domain
Experimental: (§1) Peptides without a fluorescent tag were tested in competition with a peptide with a fluorescent tag and a known Kd (Table 2). Peptides were diluted to an appropriate concentration in assay buffer as described in the direct binding assay with a maximum of 5% DMSO, then serially diluted 1 in 2. Five μL of diluted peptide was added to the plate followed by 10 μL of human or mouse EphA2 (Table 1) at a fixed concentration which was dependent on the fluorescent peptide used (Table 2), then 10 μL fluorescent peptide added. Measurements were conducted as for the direct binding assay, however the gain was determined prior to the first measurement.

Human EphA2 = biological target: T2, Human EphA2 (Human, UniProt P29317 24-537); experiment: FP competition; competitor: fluorescent Compound 66
T2 construct: extracellular domain; also called EphA2 (Ecto), Human
Experimental: as §1

Human EphA2 (Ecto) [2] = biological target: T1, Human EphA2 (Ecto); experiment: FP competition; competitor Compound 18
Experimental: as §1

Binder	Ki (Human EphA2 (Ecto) [1])	Ki (Human EphA2)	Ki (Human EphA2 (Ecto) [2])
CANDWLCSLGWTC (printed: Ac-CANDWLCSLGWTC; TBMB on the 3 Cys)	328 nM	–	–
CMNDWLCALGWTC (printed: Ac-CMNDWLCALGWTC; TBMB on the 3 Cys)	71.6 nM	–	–
CMNDWLCSAGWTC (printed: Ac-CMNDWLCSAGWTC; TBMB on the 3 Cys)	356 nM	–	–
CANDWLCSLGWTC (N-terminal acetyl; three Cys cyclised on TBMB, bicyclic peptide)	–	328 nM	–
CMNDWLCALGWTC (N-terminal acetyl; three Cys cyclised on TBMB, bicyclic peptide)	–	71.6 nM	–
CMNDWLCSAGWTC (N-terminal acetyl; three Cys cyclised on TBMB, bicyclic peptide)	–	356 nM	–
ACPWGPAWCPVNRNGCA (TBMB on the 3 Cys) [Compound 52]	168 nM	–	–
ADVRTCPWGPFWCPVNRPGCA (TBMB on the 3 Cys) [Compound 60]	2.5 nM	–	12.6 nM
ARDDPCPWGPFWCPVNRPGCA (TBMB on the 3 Cys) [Compound 62]	–	–	16.1 nM
